Earlier results as cited in publication PMC2747801 (European journal of pharmaceutical sciences : official …, 2009).
Where two headings read alike, the source gives them in different places.

Experiments:
[1] = cited from earlier work
[2] = mouse, mdr1a(−/−), footnote o ref Cisternino et al. 2004; cited from earlier work

In the case of `Cc1nc2n(c(=O)c1CCN1CCC(c3noc4cc(F)ccc34)CC1)CCCC2` [risperidone], the “logPS(obs)” value ([1]; rat, in vivo) is listed as −1.81 mL/g/s.
In the case of `Cc1cc2c(s1)Nc1ccccc1N=C2N1CCN(C)CC1` [olanzapine], the “logPS(obs)” value ([1]; rat, in vivo) is given as −1.29 mL/g/s.
In the case of `CC[C@]1(O)C[C@@H]2CN(CCc3c([nH]c4ccccc34)[C@@](C(=O)OC)(c3cc4c(cc3OC)N(C)[C@H]3[C@@](O)(C(=O)OC)[C@H](OC(C)=O)[C@]5(CC)C=CCN6CC[C@]43[C@@H]65)C2)C1` [vinblastine], the “logPS(obs)” value ([1]; rat ref Murakami et al. 2000) is listed as −3.49 mL/g/s and the “logPS(obs)” value [2] is listed as −3.31 mL/g/s.
